Results on one compound are retold here after ChEMBL document CHEMBL1129681, “Synthesis, absolute configuration, and biological profile of the enantiomers of trans-[2-(2,6-dimethoxyphenoxy)ethyl] [(3-p-tolyl-2,3-dihydro-1,4-benzodioxin-2-yl)methyl]amine (mephendioxan), a potent competitive alpha 1A-adrenoreceptor antagonist” (J Med Chem, 1996).

The chains behind the UniProt entries cited, without tags or fusion partners.
UniProt P19327, whole entry: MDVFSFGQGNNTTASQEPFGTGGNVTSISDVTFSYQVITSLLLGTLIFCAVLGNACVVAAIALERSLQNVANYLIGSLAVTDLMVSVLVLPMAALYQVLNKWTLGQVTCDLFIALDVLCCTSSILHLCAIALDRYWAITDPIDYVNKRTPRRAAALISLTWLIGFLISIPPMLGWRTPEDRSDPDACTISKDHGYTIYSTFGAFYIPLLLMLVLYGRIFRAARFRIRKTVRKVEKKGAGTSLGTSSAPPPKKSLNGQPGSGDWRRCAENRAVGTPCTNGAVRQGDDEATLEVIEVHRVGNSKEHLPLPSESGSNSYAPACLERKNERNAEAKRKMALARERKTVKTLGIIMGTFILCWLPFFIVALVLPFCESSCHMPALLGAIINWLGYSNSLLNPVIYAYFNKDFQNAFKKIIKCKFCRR
UniProt P15823, whole entry: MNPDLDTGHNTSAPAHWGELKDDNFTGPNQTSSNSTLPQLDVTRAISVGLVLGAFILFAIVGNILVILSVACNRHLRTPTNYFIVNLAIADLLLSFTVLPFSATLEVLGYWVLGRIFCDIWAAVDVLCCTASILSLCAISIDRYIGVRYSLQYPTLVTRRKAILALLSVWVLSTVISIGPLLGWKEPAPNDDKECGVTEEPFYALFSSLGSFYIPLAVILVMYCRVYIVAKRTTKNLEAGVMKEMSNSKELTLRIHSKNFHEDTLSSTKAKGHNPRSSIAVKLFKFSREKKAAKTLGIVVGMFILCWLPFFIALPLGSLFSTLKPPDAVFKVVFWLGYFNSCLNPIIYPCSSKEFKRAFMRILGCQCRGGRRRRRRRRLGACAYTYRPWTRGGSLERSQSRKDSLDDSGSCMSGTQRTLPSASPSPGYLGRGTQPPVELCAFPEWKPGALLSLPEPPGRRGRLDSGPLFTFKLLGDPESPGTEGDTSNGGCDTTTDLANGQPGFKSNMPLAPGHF
UniProt P23944, whole entry: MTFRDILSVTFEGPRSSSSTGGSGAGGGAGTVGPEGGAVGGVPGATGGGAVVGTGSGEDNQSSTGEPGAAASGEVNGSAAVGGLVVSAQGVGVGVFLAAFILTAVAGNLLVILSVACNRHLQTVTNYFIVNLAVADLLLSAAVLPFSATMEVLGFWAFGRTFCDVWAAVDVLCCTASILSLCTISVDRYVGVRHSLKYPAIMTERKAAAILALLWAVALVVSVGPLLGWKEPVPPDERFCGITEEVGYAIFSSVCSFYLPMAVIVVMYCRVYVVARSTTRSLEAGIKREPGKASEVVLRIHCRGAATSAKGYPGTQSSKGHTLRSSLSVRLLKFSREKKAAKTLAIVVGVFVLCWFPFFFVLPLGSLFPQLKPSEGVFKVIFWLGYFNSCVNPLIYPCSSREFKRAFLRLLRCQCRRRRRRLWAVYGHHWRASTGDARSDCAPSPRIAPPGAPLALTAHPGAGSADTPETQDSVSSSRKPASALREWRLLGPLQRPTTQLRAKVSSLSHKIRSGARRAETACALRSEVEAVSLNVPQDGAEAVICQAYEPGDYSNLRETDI

Each structure is given as a SMILES string.

Experiment [1] concerns the target 5-hydroxytryptamine receptor 1A (Rattus norvegicus, UniProt P19327). The experiment can be described thus: Binding affinity towards 5-hydroxytryptamine 1A receptor in rat hypocampus membrane using [3H]8-OH-DPAT as radioligand. Format: cell membranes. A digest of the protocol: (§1)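 Rat brain membranes (native receptors): cerebral cortex for α1 with [3H]prazosin (79.2 Ci/mmol) and α2 with [3H]rauwolscine (80.5 Ci/mmol); hippocampus for 5-HT1A with [3H]8-OH-DPAT (162.9 Ci/mmol); striatum for D2 with [3H]spiperone (17.7 Ci/mmol). Radioligand competition by test drug; mean ± SE of at least three separate experiments in triplicate.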

Experiment [2] concerns the target Alpha-1B adrenergic receptor (Rattus norvegicus, UniProt P15823). The experiment in a line: Binding affinity towards Alpha-1B adrenergic receptor in rat liver using [3H]prazosin as radioligand.
Experiment [3] addresses Adrenergic receptor alpha-1 (Rattus norvegicus, UniProt P15823+P23944+P43140). The experiment can be described thus: Binding affinity towards Alpha-1 adrenergic receptor in rat cerebral cortex using [3H]prazosin as radioligand. The format is tissue-based. Summed up:
as §1

The target in experiment [4] is Alpha-1D adrenergic receptor (Rattus norvegicus, UniProt P23944). The experiment can be described thus: Binding affinity towards Alpha-1D adrenergic receptor in rat brain using [3H]prazosin as radioligand. Format: tissue-based.
Experiment [5] concerns the target T1, Alpha-1A adrenergic receptor (Rattus norvegicus, UniProt P43140).
T1 sequence (P43140 whole entry): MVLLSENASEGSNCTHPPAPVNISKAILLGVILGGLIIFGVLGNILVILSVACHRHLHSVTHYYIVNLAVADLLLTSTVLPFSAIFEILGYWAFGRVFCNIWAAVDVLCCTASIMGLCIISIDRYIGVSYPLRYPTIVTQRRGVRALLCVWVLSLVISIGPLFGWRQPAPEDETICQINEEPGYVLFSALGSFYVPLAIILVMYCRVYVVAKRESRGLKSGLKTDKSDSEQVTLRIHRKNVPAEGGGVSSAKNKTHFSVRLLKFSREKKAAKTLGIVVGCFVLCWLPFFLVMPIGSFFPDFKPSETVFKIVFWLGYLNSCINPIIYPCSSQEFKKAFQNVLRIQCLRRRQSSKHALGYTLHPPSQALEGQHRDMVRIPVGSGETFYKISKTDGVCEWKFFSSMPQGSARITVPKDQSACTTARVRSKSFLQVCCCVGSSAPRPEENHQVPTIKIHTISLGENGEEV
The experiment in a line: Binding affinity towards Alpha-1A adrenergic receptor in rat hippocampal membranes using [3H]prazosin as radioligand. Format: cell membranes, Hippocampus. A digest of the protocol: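 Native α1A site from rat hippocampus membranes pretreated with CEC, labelled with [3H]prazosin in competition binding. Mean ± SE of at least three separate experiments, each run in triplicate.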

Turning to `COC(=O)C1=C(C)NC(C)=C(C(=O)OCCCN2CCC(c3ccccc3)(c3ccccc3)CC2)[C@H]1c1cccc([N+](=O)[O-])c1` [NIGULDIPINE], the Ki is over 10000 nM in experiment [1]; 380 nM in experiment [2]; 27.8 nM in experiment [3]; 82.4 nM in experiment [4]; 6.38 nM in experiment [5].

As usually defined, the Ki is the dissociation constant of the complex between target and ligand, obtained from inhibition or displacement. A low value points to a stronger hold on the target.
